The structures appear in SMILES notation. The entries are a selection whose mix differs from that of the whole data set. Some salts and complexes are drawn in separate pieces, as the source files them; their charges need not balance. The source made the active and inactive calls.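 Rule for the calls: active = inhibition above the mean over all tested compounds plus 3 SD (cut at about 4.2% in these data); inactive = the rest.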

Amino acid sequences for entries named in this document (tags omitted). Residues count along the entry.
UniProt P51843, 207-470 limits assumed: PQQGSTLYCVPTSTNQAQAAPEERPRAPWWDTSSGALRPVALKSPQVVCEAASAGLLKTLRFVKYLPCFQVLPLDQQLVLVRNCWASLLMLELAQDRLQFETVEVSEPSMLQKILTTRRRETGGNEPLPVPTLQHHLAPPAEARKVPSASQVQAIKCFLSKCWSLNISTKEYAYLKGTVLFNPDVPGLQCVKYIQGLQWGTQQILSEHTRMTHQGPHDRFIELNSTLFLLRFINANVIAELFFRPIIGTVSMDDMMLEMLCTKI

These results are taken from PubChem BioAssay AID504766 (The Scripps Research Institute Molecular Screening Center, 2011).

For the assay, the target named is Nuclear receptor subfamily 0 group B member 1 (Homo sapiens) (UniProt P51843). Put plainly: relief of DAX1 transcriptional repression – cell-based, HEK293, Gal4-DAX1, luciferase luminescence, primary screen (AID 504766).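 Note: 0% = DAX1-transfected cells with DMSO and 100% = empty-vector control cells with DMSO; inhibition shows as a rise in luminescence from relieved DAX1 repression.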 The following applies: HEK293 Gal4-DAX1 luciferase reporter, at 6.75 µM, stronger effect = higher value.
In the case of `CP(=O)(Nc1ccccn1)Oc1ccc(Cl)cc1` (configuration not stated), the inhibition is inactive: 0.29%.
The value for `CCOP(C)(=S)SCC(=O)NC(C)C(=O)O` (configuration not stated) was inactive: 0.82%; that for `CCOC(=O)c1ccc(NP(C)(=O)Oc2ccc(OC)cc2)cc1` (configuration not stated) was inactive: -1.61%; that for `CP(=O)(NC(=O)Nc1ccccc1)Oc1ccccc1` (configuration not stated) was inactive: 0.17%.
The value for `CCc1ccc(OP(C)(=O)N2CCN(c3ccc([N+](=O)[O-])cc3)CC2)cc1` (configuration not stated) was inactive: -3.56%; that for `Cc1cc(C)cc(OP(C)(=O)Nc2ccc(SC(F)(F)F)cc2)c1` (configuration not stated) was inactive: 0.15%; that for `Cc1cccc(C)c1OP(C)(=O)Nc1ccc(SC(F)(F)F)cc1` (configuration not stated) was inactive: -1.1%.
For the compound `Cc1ccc(Nc2c([N+](=O)[O-])cc([N+](=O)[O-])cc2[N+](=O)[O-])cc1`, the inhibition was inactive: -0.14%.
The value for `CP(=O)(Oc1ccccc1)OC(c1ccccc1)C(F)(F)F` (configuration not stated) was inactive: 0.72%; that for `COc1ccccc1OP(C)(=O)Nc1ccccc1` (configuration not stated) was inactive: 3.8%.
The value for `CP(=O)(Nc1ccccc1Br)Oc1ccccc1` (configuration not stated) was inactive: -2.59%; that for `CP(=S)(Nn1cnnc1)Oc1ccccc1` (configuration not stated) was inactive: -0.05%; that for `COc1ccccc1OP(C)(=O)Nc1cc(Cl)ccc1C` (configuration not stated) was inactive: -1.12%.
In the case of `COc1ccc(OP(C)(=O)Nc2cccc(F)c2)cc1` (configuration not stated) it was inactive: -0.26%; in that of `Cc1cc(C)cc(OP(C)(N)=O)c1` (configuration not stated), inactive: -0.52%.
Take `CCOC(=O)c1ccc(NP(C)(=O)Oc2ccccc2)cc1` (configuration not stated): the inhibition is inactive: 0.33%.
In the case of `COc1ccccc1OP(C)(=O)Nc1ccc(C)cc1` (configuration not stated) it was inactive: -0.35%; in that of `Cc1ccc(NP(C)(=O)Oc2ccccc2)c(C)c1` (configuration not stated), inactive: -0.43%.
The value for `CC(C)(C)c1ccc(OP(C)(=O)Nc2ccc(SC(F)(F)F)cc2)cc1` (configuration not stated) was inactive: -1.87%; that for `Cc1cccc(C)c1OP(C)(N)=O` (configuration not stated) was inactive: -1.58%.
In the case of `O=[N+]([O-])c1ccc2c(c1)C=Nc1ccccc1O2` it was inactive: -1.33%; in that of `O=[N+]([O-])c1cc([N+](=O)[O-])c(Nc2cccnc2)c([N+](=O)[O-])c1`, inactive: -1.59%.
On to `CCN(CC)CCCOC(=O)C(O)(c1ccccc1)c1ccccc1`, for which the inhibition was active: 6.29%.
The value for `Cc1cc(C)cc(OP(C)(=O)Nc2ccccn2)c1` (configuration not stated) was inactive: -0.44%; that for `CP(=O)(Nc1cccc(Br)c1)Oc1ccccc1` (configuration not stated) was inactive: 1.03%; that for `Cc1ccc(C)c(NP(C)(=O)Oc2ccccc2)c1` (configuration not stated) was inactive: -1.35%.
The value for `Cc1cc(C)cc(OP(C)(=O)Nc2ccc(C)cc2C)c1` (configuration not stated) was inactive: -0.59%.
In the case of `CCOC(=O)c1ccc(NP(C)(=O)Oc2cc(C)cc(C)c2)cc1` (configuration not stated) it was inactive: -1.37%; in that of `COc1ccccc1OP(C)(=O)Nc1cccc(Br)c1` (configuration not stated), inactive: -0.99%.
Regarding `CC1=NCCc2c1[nH]c1ccccc21.O=[N+]([O-])c1cc([N+](=O)[O-])c(O)c([N+](=O)[O-])c1`, the inhibition is inactive: -0.92%.
In the case of `O=C(O)c1cccc(Nc2c([N+](=O)[O-])cc([N+](=O)[O-])cc2[N+](=O)[O-])c1` it was inactive: 3.65%; in that of `CCCOc1ccc(NP(C)(=O)Oc2ccc(Cl)cc2)cc1` (configuration not stated), inactive: 0.99%; in that of `CP(=O)(Nc1ccc(SC(F)(F)F)cc1)Oc1ccccc1` (configuration not stated), inactive: -1.99%.
In the case of `COc1ccccc1OP(C)(=O)Nc1c(C)cccc1C` (configuration not stated) it was inactive: -2.54%; in that of `CN1CCCCC1COC(=O)C1(O)c2ccccc2CCc2ccccc21` (configuration not stated), inactive: 1.46%.
In the case of `CC1=C2N=C(C=C3N=C(C(C)=C4[N-][C@@](C)([C@@H]5N=C1[C@](C)(CCC(=O)NC[C@@H](C)OP(=O)([O-])O[C@H]1[C@@H](O)[C@@H](n6cnc7cc(C)c(C)cc76)O[C@@H]1CO)[C@H]5CC(N)=O)[C@@](C)(CC(N)=O)[C@@H]4CCC(N)=O)[C@@](C)(CC(N)=O)[C@@H]3CCC(N)=O)C(C)(C)[C@@H]2CCC(N)=O.[C-]#N.[Co+3]` it was inactive: -0.55%; in that of `O=[N+]([O-])c1cc([N+](=O)[O-])c(Nc2nnnn2CCO)c([N+](=O)[O-])c1`, inactive: -1.29%; in that of `CCOC(=O)C(CC)C1=NC(C)(C)Cc2ccccc21.O=[N+]([O-])c1cc([N+](=O)[O-])c(O)c([N+](=O)[O-])c1` (configuration not stated), inactive: -1.41%.
For `Cc1nc2ccc3ccccc3c2s1.O=[N+]([O-])c1cc([N+](=O)[O-])c(O)c([N+](=O)[O-])c1`, the inhibition was inactive: -0.54%.
The value for `O=[N+]([O-])c1cc([N+](=O)[O-])c(-c2cnn(-c3ccccc3)c2)c([N+](=O)[O-])c1` was inactive: -2.87%.
The value for `O=[N+]([O-])c1cc([N+](=O)[O-])c(-n2nnc3ccccc32)c([N+](=O)[O-])c1` was inactive: 0.4%; that for `Cc1ccccc1NP(C)(=O)Nc1ccccc1C` was inactive: -1.22%; that for `CP(=O)(Nc1ccc2c(c1)OCCO2)Oc1ccccc1` (configuration not stated) was inactive: 0.2%.
Regarding `CCOP(C)(=S)SCC(=O)NC(C)(CC)C(=O)O` (configuration not stated), the inhibition was inactive: 0.37%.
Take `CP(=O)(Nc1ccc(SC(F)(F)F)cc1)Oc1ccc(F)cc1` (configuration not stated): the inhibition is inactive: -1.83%.
For `Cc1c(C(c2ccc3c(c2)OCO3)c2c(C)n(C)n(-c3ccccc3)c2=O)c(=O)n(-c2ccccc2)n1C.O=[N+]([O-])c1cc([N+](=O)[O-])c(O)c([N+](=O)[O-])c1`, the inhibition is inactive: -0.56%.
In the case of `O=[N+]([O-])c1cc([N+](=O)[O-])c(NCC2CCS(=O)(=O)C2)c([N+](=O)[O-])c1` (configuration not stated) it was inactive: -1.38%.
In the case of `Cc1cc(-c2cccc3ccccc23)c(C)cn1.O=[N+]([O-])c1cc([N+](=O)[O-])c(O)c([N+](=O)[O-])c1` it was inactive: -1%; in that of `O=[N+]([O-])c1ccc(OP2(=O)COCCO2)cc1` (configuration not stated), inactive: 2.03%; in that of `COc1ccc(NP(C)(=O)Oc2ccccc2OC)cc1` (configuration not stated), inactive: 1.32%.
The value for `CN(C)CCOC(=O)C(O)(c1ccccc1)C1CCCCC1` (configuration not stated) was inactive: -0.21%.
Take `COc1ccc(OP(C)(=O)Nc2cccc(Br)c2)cc1` (configuration not stated): the inhibition was inactive: 1.05%.
In the case of `O=[N+]([O-])c1cc([N+](=O)[O-])c(OC2CCCCC2O)c([N+](=O)[O-])c1` (configuration not stated) it was inactive: 0.09%; in that of `CCCCCOc1ccc(NP(C)(=O)Oc2ccc(Cl)cc2Cl)cc1` (configuration not stated), inactive: 3.78%; in that of `CP(=O)(Nc1ccccc1)Oc1ccc(F)cc1` (configuration not stated), inactive: -1.32%.
In the case of `CCN(CC)CCCOC(=O)C(O)(c1ccccc1)C1CCCCC1` (configuration not stated) it was inactive: 0.22%; in that of `Cc1c([N+](=O)[O-])cc([N+](=O)[O-])c(Br)c1[N+](=O)[O-]`, inactive: -0.37%.
As to `COc1ccc(OP(C)(=O)Nc2ccc(SC(F)(F)F)cc2)cc1` (configuration not stated), the inhibition was inactive: 0.18%.
In the case of `CCOC(=O)c1ccc(NP(C)(=O)Oc2ccc(F)cc2)cc1` (configuration not stated) it was inactive: -1.55%; in that of `COc1ccc2c(c1O)-c1c(O)c(OC)cc3c1[C@H](C2)[N+](C)(C)CC3.O=[N+]([O-])c1cc([N+](=O)[O-])c([O-])c([N+](=O)[O-])c1[O-]`, inactive: -1.33%; in that of `O=C(OCCN1CCN(CCOCc2ccccc2)CC1)C(O)(c1ccccc1)c1ccccc1`, inactive: -1.36%.
In the case of `O=C(OC1CN2CCC1CC2)c1ccc([N+](=O)[O-])cc1` (configuration not stated) it was inactive: 1.61%; in that of `CC(C)c1ccc(OP(C)(=O)Nc2ccc(SC(F)(F)F)cc2)cc1` (configuration not stated), inactive: 0.49%.
The value for `CP(=O)(Nc1ccccc1F)Oc1ccccc1` (configuration not stated) was inactive: -1%; that for `O=[N+]([O-])c1cc([N+](=O)[O-])c(Nc2ccc(Cl)cc2)c([N+](=O)[O-])c1` was inactive: -3.51%.
Turning to `CCc1ccc(OP(C)(=O)O)cc1`, the inhibition is inactive: -0.55%.
In the case of `CP(=O)(Nc1ccccn1)Oc1ccccc1` (configuration not stated) it was inactive: 0.44%; in that of `COc1ccccc1OP(C)(=O)Nc1ccc(C)cc1C` (configuration not stated), inactive: 0.12%; in that of `Cc1c(NP(C)(=O)Oc2ccc(C(C)C)cc2)c(=O)n(-c2ccccc2)n1C` (configuration not stated), inactive: 0.9%.
The value for `O=[N+]([O-])c1cc([N+](=O)[O-])c(Nc2ccccn2)c([N+](=O)[O-])c1` was inactive: -0.96%; that for `CN(C)CCOC(=O)C(O)(c1ccccc1)C1CCCC1` (configuration not stated) was inactive: 1.14%.
In the case of `COc1ccc(OP(C)(=O)Nc2ccccn2)cc1` (configuration not stated), the inhibition is inactive: -0.38%.
For `COc1ccccc1OP(C)(=O)Nc1ccc(Br)cc1` (configuration not stated), the inhibition was inactive: -0.93%.
In the case of `CP(=O)(Nc1ccc(Cl)cc1Cl)Oc1ccccc1` (configuration not stated) it was inactive: -0.39%.
In the case of `CCCCCCCCCCCCCCCC1C[N+](C)(C)CCOP(C)(=O)O1` (configuration not stated) it was inactive: 1.21%.
In the case of `CP(=O)(OCCOc1ccccc1)OCCOc1ccccc1` it was inactive: 1.58%; in that of `COc1ccc(OP(C)(=O)Nc2ccccc2Br)cc1` (configuration not stated), inactive: -2.34%.
Turning to `COc1ccccc1OP(C)(=O)Nc1ccc(C)c(C)c1` (configuration not stated), the inhibition was inactive: -0.35%.
In the case of `O=C1C(O)=C([N+](=O)[O-])C(=O)C(O)=C1[N+](=O)[O-]` it was inactive: -0.78%.
The value for `Cc1cc(C)cc(OP(C)(=O)Nc2cccc(C(F)(F)F)c2)c1` (configuration not stated) was inactive: -0.82%; that for `CP(=O)(OC12CC3CC(CC(C3)C1)C2)OC12CC3CC(CC(C3)C1)C2` was inactive: 1.3%; that for `CCOC(=O)c1ccc(NP(C)(=O)Oc2ccc(Cl)cc2)cc1` (configuration not stated) was inactive: -0.02%.
In the case of `CN(C)C(=O)c1c([N+](=O)[O-])cc([N+](=O)[O-])cc1[N+](=O)[O-]` it was inactive: 3.41%; in that of `CP(=O)(Nc1ccc(Cl)cc1)Oc1ccc(F)cc1` (configuration not stated), inactive: -0.59%; in that of `COc1ccccc1OP(C)(=O)Nc1ccccc1Br` (configuration not stated), inactive: -1.19%.
Turning to `CC(C)(C)c1ccc(OP(C)(=O)O)cc1`, the inhibition was inactive: -0.19%.
The value for `CP(=O)(Oc1ccccc1)N1CCOC1=O` (configuration not stated) was inactive: 0.08%.
In the case of `CCc1ccc(OP(C)(=O)Nc2cccnc2)cc1` (configuration not stated) it was inactive: -0.27%; in that of `COc1ccccc1OP(C)(=O)Nc1c(C)n(C)n(-c2ccccc2)c1=O` (configuration not stated), inactive: -0.25%.
The value for `O=C(OCCCN1CCCC1)C(O)(c1ccccc1)C1CCCCC1` (configuration not stated) was inactive: 0.04%; that for `CCN(CC)CC(O)COC(=O)C(O)(c1ccccc1)C1CCCCC1` (configuration not stated) was inactive: 1.11%; that for `COc1ccc(OP(C)(=O)Nc2ccc(Br)cc2)cc1` (configuration not stated) was inactive: 1.2%.

The term inhibition denotes the relative decrease from the control value, in per cent.
